# Target: FVIIa (Homo sapiens, UniProt P08709)
# The chains behind the UniProt entries cited, without tags or fusion partners. Residues count along the entry.
# UniProt P08709, 61-212 limits assumed: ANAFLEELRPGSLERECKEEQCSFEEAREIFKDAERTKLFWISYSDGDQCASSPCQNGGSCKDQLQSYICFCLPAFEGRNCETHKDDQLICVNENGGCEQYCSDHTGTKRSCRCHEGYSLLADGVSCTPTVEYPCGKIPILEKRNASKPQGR
# UniProt P08709, 213-466 limits assumed: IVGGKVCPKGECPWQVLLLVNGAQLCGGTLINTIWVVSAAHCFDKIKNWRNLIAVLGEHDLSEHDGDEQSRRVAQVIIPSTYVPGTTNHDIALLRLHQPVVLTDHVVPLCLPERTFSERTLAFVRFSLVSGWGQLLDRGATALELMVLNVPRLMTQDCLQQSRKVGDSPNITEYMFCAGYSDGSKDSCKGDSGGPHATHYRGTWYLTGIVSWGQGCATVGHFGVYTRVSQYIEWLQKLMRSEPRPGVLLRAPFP
# UniProt P13726, 33-295 partner limits assumed: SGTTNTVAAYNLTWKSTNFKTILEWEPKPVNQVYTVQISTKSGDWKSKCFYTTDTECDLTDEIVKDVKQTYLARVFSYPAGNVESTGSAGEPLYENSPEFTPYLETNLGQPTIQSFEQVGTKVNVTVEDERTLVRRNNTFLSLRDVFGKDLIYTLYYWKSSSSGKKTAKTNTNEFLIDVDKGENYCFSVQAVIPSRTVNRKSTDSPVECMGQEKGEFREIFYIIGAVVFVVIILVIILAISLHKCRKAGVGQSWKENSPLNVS
# Assay: FVIIa Ki (25° C.): FVIIa peptide substrate assay
# Details: read-out: FVIIa Ki, S2288 peptide substrate, full-length human TF
# Procedure: The effectiveness of compounds of the present invention as inhibitors of the coagulation Factors, VIIa, IXa, Xa, XIa, XIIa, plasma kallikrein or thrombin, tissue kallikrein and activated protein C, can be determined using a relevant purified serine protease, respectively, and an appropriate synthetic substrate. The rate of hydrolysis of the chromogenic or fluorogenic substrate by the relevant serine protease was measured both in the absence and presence of compounds of the present invention. […] A decrease in the rate of absorbance or fluorescence change in the presence of inhibitor is indicative of enzyme inhibition. Such methods are known to one skilled in the art. The results of this assay are expressed as the inhibitory constant, Ki.
# a. FVIIa Ki (25° C.): FVIIa Peptide Substrate Assay
# S2288 (range of concentrations) and FVIIa inhibitor were incubated for 15 minutes (min) at 25° C. Reactions were initiated by addition of a solution of full-length human TF (6 nM), FVIIa (0.75 nM), and PCPS (25 μM). FVIIa hydrolyses S2288, which was monitored for up to 60 min at 405 nm. […]
smiles,measurement,value
CN1Cc2cc(ccc2S(=O)(=O)C2CC2)NC(=O)COCc2cccc(c2)C(Nc2ccc3c(N)ncc(F)c3c2)C1=O (stereo not shown),Ki,265 nM

# Reference: patent US9657006B2, “Macrocyclic factor VIIa inhibitors” (BRISTOL-MYERS SQUIBB COMPANY, priority 2013, dated 2017)
